## Measured logP (octanol/water) values of organic chemicals

Data: OPERA 2.9 data sets, kmansouri/OPERA on GitHub.

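The OPERA project collected these measurements from public sources as training and test data for property models. A listed value is a point estimate from one report or more. Conditions of the individual experiments are not part of the data. A value may pool stereoisomers or salt forms, and the file does not say which form was measured. Some upstream entries may be estimates or bounds without being marked so.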

logP is the log10 of the octanol-water partition coefficient; higher is more lipophilic. "n/a" marks a cell with nothing listed here.

compound	name	logP (octanol/water)
COc1cc(OC)nc(NC(=O)Oc2ccccc2)n1	n/a	2.1
CC(CC=O)c1ccccc1 (centres undefined)	3-Phenylbutyraldehyde	1.9
CCc1ncc[nH]1	1H-Imidazole, 2-ethyl-	0.55
CC1=NN(c2ccc(C)cc2)C(=O)C1	3-Methyl-1-p-tolyl-5-pyrazolone	1.77
[K+].[O-]/[N+](=N\O)C1CCCCC1	n/a	-0.2
CC(C)COC(=O)CCCCC(=O)OCC(C)C	Diisobutyl adipate	4.3
Clc1ccc(-c2cc(Cl)cc(Cl)c2Cl)cc1	n/a	6.17
CCCCC(CC)COCCO (centres undefined)	2-(2-Ethylhexyloxy)ethanol	2.86
Cc1ccc(S(=O)(=O)Nc2ccc(C)c(Nc3cc(S(=O)(=O)[O-])c(N)c4c3C(=O)c3ccccc3C4=O)c2)cc1.[Na+]	n/a	0.845
OCCOCCOc1ccccc1	Diethylene glycol monophenyl ether	1.35
CNC(=O)c1cc(C#N)cc(C)c1N	2-Amino-5-cyano-N,3-dimethylbenzamide	1.42
COc1ccccc1NC(=O)C(N=Nc1ccccc1C(=O)O)C(C)=O (centres undefined)	n/a	2.01
Nc1ccc(/N=N/c2ccc3c(S(=O)(=O)[O-])cccc3c2O)cc1.[Na+]	C.I. Acid Brown 4	-1.652
CN1CCN(N)CC1	4-Methyl-1-piperazinamine	-1.61
CC(C)(C)C1CCC2(CC1)OCC(CCl)O2 (centres undefined)	2-Chlormethyl-8-(1,1-dimethylethyl)-1,4-dioxaspiro[4.5]decan	4.46
C#CC(C)(O)CCC=C(C)CC (centres undefined)	6-Nonen-1-yn-3-ol, 3,7-dimethyl-	2.8
CC1=NN(c2ccccc2)C(=O)C1/N=N/c1cccc([N+](C)(C)C)c1.[Cl-] (stereo partly drawn)	n/a	1.14
COC(=O)C(C)(C)O	Methyl 2-hydroxy-2-methylpropionate	0.953
C=CCCCCCCO	Oct-7-en-1-ol	2.41
Clc1cc(Cl)c(-c2cc(Cl)c(Cl)cc2Cl)c(Cl)c1	2,2',4,4',5,6'-Hexachlorobiphenyl	6.76
CC(=O)Oc1cc(OC(C)=O)cc(C(C)=O)c1	5-Acetyl-1,3-phenylene diacetate	1.5
CON=C(C)Cc1c(Cl)cc(Cl)cc1Cl	1-(2,4,6-Trichlorophenyl)-2-propanone O-methyloxime	4.5
c1ccc2c(c1)-c1ccc3ccc4cccc5cc-2c1c3c45	Indeno[1,2,3-cd]pyrene	6.58
O=C1Cc2cc(CCN3CCN(c4nsc5ccccc45)CC3)c(Cl)cc2N1	Ziprasidone	3.8
CCC(C(=O)O)c1ccc(N2C(=O)c3ccccc3C2=O)cc1 (centres undefined)	n/a	2.3
CO[C@H]1C[C@H](O[C@H]2[C@H](C)O[C@@H](O[C@@H]3C(C)=CC[C@@H]4C[C@@H](C[C@]5(CC[C@H](C)[C@@H](C6CCCCC6)O5)O4)OC(=O)[C@@H]4C=C(C)[C@@H](O)[C@H]5OCC(=CC=C[C@@H]3C)[C@]54O)C[C@@H]2OC)O[C@@H](C)[C@@H]1O	n/a	7.35
C/C=C(C)\C=C\C=C(C)C	(4Z,6Z)-Alloocimene	4.71
CC(=O)N[C@@H](Cc1ccc(O)cc1)C(=O)N[C@H](C(N)=O)C(C)C	L-Valinamide, N-acetyl-L-tyrosyl-	-0.2
CC(=O)OCC(CCn1cnc2cnc(N)nc21)COC(C)=O	Famciclovir	0.6
FC(F)(F)c1ccc(Cl)c(Cl)c1	1,2-Dichloro-4-(trifluoromethyl)benzene	4.24
CCCCC[N+](C)(C)C.[I-]	N,N,N-Trimethylpentan-1-aminium iodide	-2.22
Nc1ccc(/N=N/c2c(N)ccc3cc(S(=O)(=O)[O-])cc(O)c23)c(S(=O)(=O)[O-])c1.[Na+].[Na+]	n/a	-2.48
CC1C(C=O)CC2CC1C2(C)C (centres undefined)	Bicyclo[3.1.1]heptane-3-carboxaldehyde, 2,6,6-trimethyl-	4.2
CC(=O)N(CCO)c1c(I)c(C(=O)N(C)CC(O)CO)c(I)c(C(=O)N(C)CC(O)CO)c1I (centres undefined)	n/a	-2.28
FC(F)(F)C(F)(F)C(F)(F)C(F)(F)C(F)(F)C(F)(F)CCSCCCCS	n/a	5.5
COc1nc(OC)nc(C(=O)c2cccc(F)c2N(C)S(=O)(=O)C(F)F)n1	n/a	1.5
Nc1ccc(N)c(CCO)c1.O=S(=O)(O)O	Hydroxyethyl-p-phenylenediamine sulphate	0.24
Fc1cccc(Cl)c1	Benzene, 1-chloro-3-fluoro-	2.76
NC(CO)(CO)CO.O=C(c1ccccc1)c1ccc2n1CCC2C(=O)O (centres undefined)	Ketorolac tromethamine	-0.59